Patent US20080020973A1 (priority 2004, published 2008)

The chains behind the UniProt entries cited, without tags or fusion partners. Where a name states a change or a piece, a line headed by the entry shows the natural chain unless it says otherwise.
UniProt P11387: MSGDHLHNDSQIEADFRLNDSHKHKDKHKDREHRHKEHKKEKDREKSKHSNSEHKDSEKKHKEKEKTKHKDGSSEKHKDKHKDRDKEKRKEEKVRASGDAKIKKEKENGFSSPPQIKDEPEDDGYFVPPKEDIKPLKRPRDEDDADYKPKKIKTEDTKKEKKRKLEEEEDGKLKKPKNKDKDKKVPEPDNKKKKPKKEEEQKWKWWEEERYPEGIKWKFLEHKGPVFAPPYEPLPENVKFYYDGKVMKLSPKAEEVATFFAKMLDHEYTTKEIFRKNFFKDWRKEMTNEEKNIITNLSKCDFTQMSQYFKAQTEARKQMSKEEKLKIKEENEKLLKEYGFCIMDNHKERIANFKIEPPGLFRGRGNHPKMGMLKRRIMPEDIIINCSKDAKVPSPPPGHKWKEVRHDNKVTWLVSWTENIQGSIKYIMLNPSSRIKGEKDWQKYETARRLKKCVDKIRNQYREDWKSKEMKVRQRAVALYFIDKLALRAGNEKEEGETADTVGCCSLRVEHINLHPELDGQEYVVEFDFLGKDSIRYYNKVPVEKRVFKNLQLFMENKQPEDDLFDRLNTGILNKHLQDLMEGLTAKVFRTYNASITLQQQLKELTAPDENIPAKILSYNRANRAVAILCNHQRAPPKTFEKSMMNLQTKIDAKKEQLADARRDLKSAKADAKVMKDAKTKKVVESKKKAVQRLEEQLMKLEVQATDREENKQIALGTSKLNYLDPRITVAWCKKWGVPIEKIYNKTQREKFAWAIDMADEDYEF

Target: human topoisomerase type IB (hTopo) (Homo sapiens, UniProt P11387)
Assay: Plasmid supercoil relaxation (SC release) assay, hTopo
Assay type: biochemical
Details: @ 20 μM

O=[As](O)(O)c1ccc(-c2cccc([As](=O)(O)O)c2)cc1
% Inhibition (plasmid SC release assay): 50% @ 20 μM
